In one experiment the test system is JHH7 cells. The experiment can be described thus: In vivo efficacy in tumor xenograft model. Also noted: species or system Nude mice. Conditions: for Complete Regression / Partial Regression / Progressive Disease / Stable Disease: 15 days, number of animals, n=10 per group.
For a further experiment, the system named is SNU449. As to the kind of experiment: Cellular Viability assay to obtain GI50 (CellTiter-Glo). The experiment is classed as cell-based. Conditions: Homo sapiens, SNU-449; SNU449, 72h, FGF19 non-amplified. In general terms: ATP-based viability assays read luminescence as a measure of living cells.
The next experiment deals with HEPG2. Described as above. The format is cell-based. Conditions: Homo sapiens; HEPG2, 72h, FGF19 non-amplified.
The next experiment has as its system JHH7. Described as above. The experiment is classed as cell-based. Conditions: Homo sapiens; JHH7, 72h, FGF19 amplified line.
For another experiment, the system named is HUH7 cells. The experiment can be described thus: In vivo efficacy in tumor xenograft model. Further details: species or system Nude mice. Conditions: for Complete Regression / Partial Regression / Progressive Disease / Stable Disease: HUH7 xenograft, 15 days, number of animals, n=10 per group.
Another experiment concerns SNU398. The experiment can be described thus: Cellular Viability assay to obtain GI50 (CellTiter-Glo). The experiment is classed as cell-based. Conditions: Homo sapiens, SNU-398; SNU398, 72h, FGF19 non-amplified.
The subject of experiment [1] is Hep3B. As to the kind of experiment: In vivo efficacy in tumor xenograft model. Also noted: species or system Nude mice. The conditions noted are these: for Complete Regression / Partial Regression / Progressive Disease / Stable Disease: HEP3B xenograft, 15 days, number of animals, n=5 per group.
Experiment [2] relates to HEP3B. As to the kind of experiment: Cellular Viability assay to obtain GI50 (CellTiter-Glo). The format is cell-based. Conditions: Homo sapiens, 72h, FGF19 amplified line.
For a further experiment, the system named is HUH7. Described as above. The experiment is classed as cell-based. The conditions noted are these: Homo sapiens, Huh-7; HUH7, 72h, FGF19 amplified line.
Another experiment deals with T1, FGFR4 (Homo sapiens, UniProt P22455).
T1 construct: purchased Invitrogen
The experiment can be described thus: IC50 Profiling of Kinase Activity Inhibition (Kinase HotSpot assay). The experiment is classed as biochemical.

Amino acid sequences for entries named in this document (tags omitted). Residues count along the entry.
UniProt P22455, 22-802: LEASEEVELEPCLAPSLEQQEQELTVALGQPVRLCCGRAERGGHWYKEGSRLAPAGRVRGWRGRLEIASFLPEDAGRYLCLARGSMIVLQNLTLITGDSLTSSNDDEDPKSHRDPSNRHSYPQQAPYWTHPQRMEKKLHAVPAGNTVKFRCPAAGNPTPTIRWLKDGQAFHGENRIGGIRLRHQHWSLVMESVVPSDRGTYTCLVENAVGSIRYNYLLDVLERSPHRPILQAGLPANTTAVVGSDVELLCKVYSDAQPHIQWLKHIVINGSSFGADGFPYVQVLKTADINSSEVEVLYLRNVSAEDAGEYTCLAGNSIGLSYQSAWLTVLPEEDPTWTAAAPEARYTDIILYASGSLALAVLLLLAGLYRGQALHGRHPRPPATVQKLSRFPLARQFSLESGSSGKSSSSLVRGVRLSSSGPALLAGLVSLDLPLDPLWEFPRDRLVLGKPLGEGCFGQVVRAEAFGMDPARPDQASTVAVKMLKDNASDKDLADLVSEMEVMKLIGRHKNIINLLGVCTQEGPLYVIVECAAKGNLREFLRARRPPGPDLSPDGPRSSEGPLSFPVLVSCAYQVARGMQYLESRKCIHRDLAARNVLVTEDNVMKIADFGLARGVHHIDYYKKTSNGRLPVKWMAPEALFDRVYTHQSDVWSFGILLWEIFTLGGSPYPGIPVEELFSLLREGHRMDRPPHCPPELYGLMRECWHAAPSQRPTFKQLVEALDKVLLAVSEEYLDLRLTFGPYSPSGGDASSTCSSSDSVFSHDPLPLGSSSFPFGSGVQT

The mark [3] stands for this setting: JHH7 xenograft, 12.5 mg/kg twice daily i.p.
Setting [4] is: JHH7 xenograft, 25 mg/kg twice daily i.p.
The mark [5] stands for this setting: JHH7 xenograft, 37.5 mg/kg twice daily i.p.

The values below come from patent publication EP3421457B1, “PYRIMIDINE FGFR4 INHIBITORS” (priority 2013, dated 2015).

Structures can show the parent of a compound that is named as a salt. Where two headings read alike, the source gives them in different places.

The GI50 is the concentration at which growth is held to half of that of the control. In the case of `C=CC(=O)Nc1cc(N2CCN(CC)CC2)ccc1Nc1cc(N(C)C(=O)Nc2c(Cl)c(OC)cc(OC)c2Cl)ncn1` [Compound 108, N-(2-(6-(3-(2,6-Dichloro-3,5-dimethoxyphenyl)-1-methylureido)pyrimidin-4-ylamino)-5-(4-ethylpiperazin-1-yl)phenyl)acrylamide], the “sensitivity to compound 108” value in the experiment with JHH7 cells (JHH7 xenograft model, compared among the three models) is on record as “the least sensitive”; in the experiment with HUH7 cells (HUH7 xenograft model, compared among the three models) it was “intermediate sensitivity”; in the experiment with Hep3B [1] (HEP3B xenograft model, compared among the three models), “the most sensitive”. For the same compound, the response category entry in the experiment on JHH7 cells (JHH7 xenograft, all dose levels tested) is on record as “Progressive Disease in all dose levels tested”. Also, the “Complete Regression” value in the experiment on JHH7 cells (setting [3]) turned out to be 0; in the experiment on JHH7 cells (setting [4]), 0; in the experiment on JHH7 cells (setting [5]) it was 0; in the experiment on HUH7 cells (25 mg/kg twice daily i.p.) it was 1; with HUH7 cells (37.5 mg/kg twice daily i.p.), 2; in the experiment with Hep3B [1] (12.5 mg/kg twice daily i.p.), 0. In addition, the “Complete Regression” value is 0 in the experiment on Hep3B [1] (25 mg/kg twice daily i.p.) and 5 with Hep3B [1] (37.5 mg/kg twice daily i.p.). Further, the “Partial Regression” value with JHH7 cells (setting [3]) came to 0; with JHH7 cells (setting [4]), 0; with JHH7 cells (setting [5]), 0; with HUH7 cells (25 mg/kg twice daily i.p.), 4; in the experiment with HUH7 cells (37.5 mg/kg twice daily i.p.) it was 5; in the experiment with Hep3B [1] (12.5 mg/kg twice daily i.p.) it was 0. For the same compound, the “Partial Regression” value in the experiment on Hep3B [1] (25 mg/kg twice daily i.p.) stood at 1; with Hep3B [1] (37.5 mg/kg twice daily i.p.), 0. Moreover, the “Progressive Disease” value is recorded as 10 in the experiment with JHH7 cells (setting [3]); 10 in the experiment on JHH7 cells (setting [4]); 10 with JHH7 cells (setting [5]); 2 with HUH7 cells (25 mg/kg twice daily i.p.); 0 with HUH7 cells (37.5 mg/kg twice daily i.p.); 5 in the experiment with Hep3B [1] (12.5 mg/kg twice daily i.p.). Moreover, the “Progressive Disease” value in the experiment with Hep3B [1] (25 mg/kg twice daily i.p.) and with Hep3B [1] (37.5 mg/kg twice daily i.p.) was 0 throughout. For the same compound, the “Stable Disease” value is 0 with JHH7 cells (setting [3]); 0 in the experiment on JHH7 cells (setting [4]); 0 with JHH7 cells (setting [5]); 3 in the experiment with HUH7 cells (25 mg/kg twice daily i.p.); 3 with HUH7 cells (37.5 mg/kg twice daily i.p.); 0 in the experiment with Hep3B [1] (12.5 mg/kg twice daily i.p.). Further, the “Stable Disease” value worked out at 4 in the experiment on Hep3B [1] (25 mg/kg twice daily i.p.) and 0 in the experiment on Hep3B [1] (37.5 mg/kg twice daily i.p.). Moreover, the GI50 was over 10000 nM in the experiment with SNU449; 6510 ± 1420 nM in the experiment on HEPG2; 216 ± 70 nM in the experiment on JHH7; over 10000 nM in the experiment on SNU398; 18 ± 6 nM with HEP3B [2]; 408 ± 128 nM with HUH7.
The term IC50 denotes the midpoint of a concentration-inhibition curve. On to `C=C(F)C(=O)Nc1ccccc1Nc1cc(N(C)C(=O)Nc2c(Cl)c(OC)cc(OC)c2Cl)ncn1` [Compound 110, N-(2-(6-(3-(2,6-dichloro-3,5-dimethoxyphenyl)-1-methylureido)pyrimidin-4-ylamino)-phenyl)-2-fluoroacrylamide], for which the IC50 at FGFR4 (Table 1, read-out: FGFR4 IC50) was found to be 27 nM.
Regarding `C=CC(=O)Nc1cc(N2CCOCC2)ccc1Nc1cc(N(C)C(=O)Nc2c(Cl)c(OC)cc(OC)c2Cl)ncn1` [Compound 123, N-(2-{6-[3-(2,6-Dichloro-3,5-dimethoxy-phenyl)-1-methyl-ureido]-pyrimidin-4-ylamino}-5-morpholin-4-yl-phenyl)-acrylamide], the IC50 on FGFR4 (Table 1, read-out: FGFR4 IC50) was under 1 nM.
Still for that read-out and setting: the figure for `C=CC(=O)Nc1ccc(N2CCN(CC)CC2)cc1Nc1cc(N(C)C(=O)Nc2c(Cl)c(OC)cc(OC)c2Cl)ncn1` [Compound 133, N-[2-{6-[3-(2,6-Dichloro-3,5-dimethoxy-phenyl)-1-methyl-ureido]-pyrimidin-4-ylamino}-4-(4-ethyl-piperazin-1-yl)-phenyl]-acrylamide trifluoroacetic acid salt] is 4 nM.
As to `C=CC(=O)Nc1cc(OCCOC)ccc1Nc1cc(N(C)C(=O)Nc2c(Cl)c(OC)cc(OC)c2Cl)ncn1` [Compound 142, N-(2-((6-(3-(2,6-dichloro-3,5-dimethoxyphenyl)-1-methylureido)pyrimidin-4-yl)amino)-5-(2-methoxyethoxy)phenyl)acrylamide], at FGFR4, the IC50 was under 1 nM.
For the compound `C=CC(=O)Nc1cc(C(=O)N2CCN(C)CC2)ccc1Nc1cc(N(C)C(=O)Nc2c(Cl)c(OC)cc(OC)c2Cl)ncn1` [Compound 148, N-(2-((6-(3-(2,6-dichloro-3,5-dimethoxyphenyl)-1-methylureido)pyrimidin-4-yl)amino)-5-(4-methylpiperazine-1-carbonyl)phenyl)acrylamide], the IC50 on FGFR4 (read-out: FGFR4 IC50) was under 1 nM.
